The target in the experiment is human CD22 (d1 to d7 domain according to NP_001762.2) (human) (UniProt P20273). Briefly: SPR. (In SPR one partner is held on a chip, and binding of the other changes the refractive index at the surface.)

B1: TNT70 variant RL1 N92K (antibody, V domains shown)
VH: QVQLLESGGGVVQPGGSLRLSCAASGFAFSIYDMNWVRQAPGKGLEWVSAISSGGGTTYYADSVKGRFTISRDNAKNSLYLQMNSLRAEDTAVYYCARHSGYGTHWGVLFAYWGRGTLVTVSS
VL: DIQMTQSPSSLSASVGDRVTITCRASQDIHGYLNWYQQKPGKAPKLLIYYTSILHSGVPSRFSGSGSGTDFTLTISSLQPEDFATYFCQQGKTLPWTFGQGTKLEIK
The term Kd denotes the constant that tells how readily two partners part at equilibrium. A low value points to a tighter complex. Consider B1, for which the Kd turned out to be 0.431 nM.
